Target: T1, SIRT1 (Homo sapiens, UniProt Q96EB6)
T1 sequence (Q96EB6 1-747): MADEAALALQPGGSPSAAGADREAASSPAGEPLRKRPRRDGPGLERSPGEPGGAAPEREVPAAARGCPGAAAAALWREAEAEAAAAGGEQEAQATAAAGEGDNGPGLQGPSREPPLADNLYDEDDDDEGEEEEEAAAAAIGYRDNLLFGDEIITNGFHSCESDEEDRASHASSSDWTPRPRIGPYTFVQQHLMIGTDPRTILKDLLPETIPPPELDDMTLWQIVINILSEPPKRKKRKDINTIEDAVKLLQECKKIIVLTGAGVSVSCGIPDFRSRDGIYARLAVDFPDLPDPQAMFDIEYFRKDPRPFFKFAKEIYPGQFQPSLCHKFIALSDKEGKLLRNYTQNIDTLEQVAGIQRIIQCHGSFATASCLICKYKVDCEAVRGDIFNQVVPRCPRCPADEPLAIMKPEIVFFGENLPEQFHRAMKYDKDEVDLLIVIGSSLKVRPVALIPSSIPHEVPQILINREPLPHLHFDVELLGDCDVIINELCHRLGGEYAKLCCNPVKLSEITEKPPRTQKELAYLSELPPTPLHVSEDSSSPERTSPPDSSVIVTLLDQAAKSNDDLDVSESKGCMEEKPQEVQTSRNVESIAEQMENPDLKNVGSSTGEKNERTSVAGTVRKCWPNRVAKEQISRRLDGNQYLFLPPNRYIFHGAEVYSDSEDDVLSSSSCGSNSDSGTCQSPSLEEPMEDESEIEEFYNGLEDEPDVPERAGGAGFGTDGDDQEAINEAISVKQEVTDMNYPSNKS
Assay: Trp mass spectrometry assay of SIRT1 activity (EC1.5, percent maximum activation)
Assay type: biochemical
Source text: Mass spectrometry based assays were used to identify modulators of SIRT1 activity. […] The peptide was labeled with the fluorophore 5TMR (excitation 540 nm/emission 580 nm) at the C-terminus. The sequence of the peptide substrate was based on p53 with several modifications. In addition, the methionine residue naturally present in the sequence was replaced with the norleucine because the methionine may be susceptible to oxidation during synthesis and purification.
The Trp mass spectrometry assay was conducted as follows. […] Test compound was added at varying concentrations to this reaction mixture and the resulting reactions were monitored. […] The relative SIRT1 activity was then determined by measuring the amount of O-acetyl-ADP-ribose (OAADPR) formed (or, alternatively, the amount of deacetylated Trp peptide generated) by the NAD-dependent sirtuin deacetylation reaction in the presence of varying concentrations of the test compound versus control reactions lacking the test compound. The degree to which the test agent activated deacetylation by SIRT1 was expressed as EC1.5 (i.e., the concentration of compound required to increase SIRT1 activity by 50% over the control lacking test compound), and Percent Maximum Activation (i.e., the maximum activity relative to control (100%) obtained for the test compound). […]

Q: For `Cc1ccc(-c2ccc3c(n2)N(C(=O)NCC(F)(F)F)[C@H]2CCN3C2)cn1` [Example 272, (4S)-7-(2-methylpyridin-4-yl)-N-(9H-purin-6-yl)-3,4-dihydro-1,4-methano pyrido[2,3-b][1,4]diazepine-5(2H)-carboxamide], which “TRP MAX RESP (percent maximum fold activation)” value is on record?
A: A (key: A: Fold activation ≧150%; B: Fold Activation <150%)

From patent publication US20170355705A1 (GlaxoSmithKline Intellectual Property (No.2) Limited, priority 2014, published 2017)
